{
  "sequences": {"note": "Sequences of proteins named here, by UniProt entry; tags and fusion partners are left off. Residues count along the entry.", "UniProt P22894, 100-262 limits assumed": "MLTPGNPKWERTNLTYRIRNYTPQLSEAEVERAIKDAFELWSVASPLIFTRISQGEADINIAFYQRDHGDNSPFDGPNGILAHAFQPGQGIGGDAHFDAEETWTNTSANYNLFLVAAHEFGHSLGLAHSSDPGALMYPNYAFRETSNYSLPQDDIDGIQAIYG"},
  "source": "patent US6716845B2",
  "about": "“Barbituric acid derivatives” (Hoffmann-La Roche Inc., priority 2001, dated 2004)",
  "target": "MMP-8, catalytic domain (Homo sapiens, UniProt P22894)",
  "test": "Inhibition of MMP-8 catalytic domain, fluorogenic DNP-heptapeptide substrate cleavage",
  "conditions": "read-out: IC50 Values of MMP-Inhibitor (vs. MMP-8, catalytic domain); catalytic domain of human neutrophil collagenase (MMP-8); substrate DNP-Pro-Leu-Gly-Leu-Trp-Ala-D-Arg-NH2; 25° C.",
  "data": [
    {"smiles": "CCCCCCCCC1(N2CCN(c3ccc([N+](=O)[O-])cc3)CC2)C(=O)NC(=O)NC1=O", "values": [
      {"measurement": "IC50", "value": 60, "unit": "nM"}
    ]}
  ]
}
